Results on one substance are retold here after patent US20100034739A1, “Fungus-Specific Imaging Agents” (priority 2006, published 2010).

This data set deals with Aspergillus fumigatus.

Take “^111In-DTPA-Benzyl-NH-Succinic Acid-CGGRLGPFC [imaging agent of FIG. 1]”: the “uptake of the imaging agent in the lung, infected versus uninfected control mice” value (24 hours after injection, mice infected with Aspergillus fumigatus, FIG. 3A) is given as “higher uptake”. Further, the “target-to-background ratio: imaging agent in lung tissue compared to blood or muscle, infected versus control mice” value (24 hours post injection, pulmonary Aspergillus infection, FIG. 3B) is on record as “much higher amounts”.
